Assay results reported in ChEMBL document CHEMBL1153063 (Bioorg Med Chem Lett, 2009).

The chains behind the UniProt entries cited, without tags or fusion partners.
UniProt Q05941, whole entry: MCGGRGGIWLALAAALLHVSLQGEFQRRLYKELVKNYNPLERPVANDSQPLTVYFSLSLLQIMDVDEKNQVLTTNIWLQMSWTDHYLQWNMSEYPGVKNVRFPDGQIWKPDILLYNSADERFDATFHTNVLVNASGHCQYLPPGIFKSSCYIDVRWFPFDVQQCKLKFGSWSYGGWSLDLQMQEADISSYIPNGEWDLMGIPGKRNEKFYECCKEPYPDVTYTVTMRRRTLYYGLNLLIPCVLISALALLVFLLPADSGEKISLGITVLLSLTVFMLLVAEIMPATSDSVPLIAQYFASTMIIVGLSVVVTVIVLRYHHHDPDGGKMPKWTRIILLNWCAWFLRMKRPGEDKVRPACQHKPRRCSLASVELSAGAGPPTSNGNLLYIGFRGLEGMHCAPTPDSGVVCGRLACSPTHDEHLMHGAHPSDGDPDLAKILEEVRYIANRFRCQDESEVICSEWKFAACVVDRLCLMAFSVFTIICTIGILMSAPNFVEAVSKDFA

Biological target: Neuronal acetylcholine receptor subunit alpha-7 (Rattus norvegicus, UniProt Q05941)
Assay: Displacement of [125I]BTX from rat alpha7 nAChR expressed in rat GH4C1 cells
Format: cell-based, GH4-C1
Procedure, shortened: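 GH₄C₁ cell binding with [¹²⁵I]-BTX; six-point dose–response curve in triplicate, values averaged.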

In the case of `O=C(Oc1ccc(Br)cc1)N1CCN2CCC1CC2` [SSR180711], the Ki is reported as 38 nM.
